The conditions of this series: 600 μU/ml insulin for 40 days.

Data on one substance can be found in patent publication US20150238573A1, “NUTRITIONAL FOOD AND FEED, COMPOSITION, PROCESSING AND METHOD OF USE” (Nutrinia Ltd., priority 2004, published 2015).

With Insulin, the Glucose turned out to be 92.83 ± 16.14 mg/dL and the “Hematological pictures, study vs control group” value is “similar”.
